Data on one substance can be found in US20170158742A1.

Chains of the proteins cited; added tags and fusions are not shown. Lines headed by an entry give the natural chain unless they say otherwise; changes in a name come on top.
UniProt Q96F10: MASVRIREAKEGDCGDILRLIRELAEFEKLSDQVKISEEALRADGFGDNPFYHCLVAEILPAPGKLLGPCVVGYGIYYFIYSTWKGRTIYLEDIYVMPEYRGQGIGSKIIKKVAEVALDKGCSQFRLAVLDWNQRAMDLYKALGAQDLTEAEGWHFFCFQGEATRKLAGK

The target in the assay is Spermidine/spermine Ni-acetyltransferase family member 2 (human) (UniProt Q96F10).

“biotinylated full-length Dengue virus capsid (DENV C) protein” gave a Signal Intensity of 1010 and a Z-score of 3.9.
